Target: HDAC6 (Homo sapiens, UniProt Q9UBN7)
Experiment: Immunoblot of HDAC degradation in MCF-7 cells
Conditions: 12 h
Method: FIG. 3A: Immunoblot of whole cell lysate after MCF-7 cells were treated with 5 μM of 9a-9d for 12 h.
FIG. 3B: Immunoblot of whole cell lysate after MCF-7 cells were treated with 9c at various concentrations (5 nM to 10 μM) for 12 h.
FIG. 3C: Band intensity of the immunoblot shown in FIG. 3B calculated using “Image J” software (a public domain, Java-based image processing program developed at the National Institutes of Health and only available online at https://imagej.nih.gov/ij/) and curve-fit and graphed using GraphPad's “Prism”-brand software (GraphPad Software, Inc. La Jolla, Calif.).
The activity and selectivity of HDAC degraders 9a-9d was tested in cell-based assays against different HDACs. […] The degradation of HDAC6 induced by compound 9c led to the increase of acetylated tubulin as expected from the initial results. The concentration at which half-maximal degradation was achieved (DC50) and the maximum percentage of degradation (Dmax) were 34 nM and 70.5% respectively. […] Douglass, E. F.; Miller, C. […]
When the cells reached 90% confluence, they were harvested and plated 1×10^6 cells per well in 6-well plate. […] Protein concentration was measured by using the Pierce BCA protein assay (Thermo Fisher Scientific). […] The Immunoblot was generated by ChemiDoc MP Imaging Systems (Bio-Rad) and analyzed by Image J software (only available for download online at https://imagej.net/Downloads). […]

Protein sequences, listed by entry. Tags and fused reporters are not part of them.
UniProt Q9UBN7, whole entry: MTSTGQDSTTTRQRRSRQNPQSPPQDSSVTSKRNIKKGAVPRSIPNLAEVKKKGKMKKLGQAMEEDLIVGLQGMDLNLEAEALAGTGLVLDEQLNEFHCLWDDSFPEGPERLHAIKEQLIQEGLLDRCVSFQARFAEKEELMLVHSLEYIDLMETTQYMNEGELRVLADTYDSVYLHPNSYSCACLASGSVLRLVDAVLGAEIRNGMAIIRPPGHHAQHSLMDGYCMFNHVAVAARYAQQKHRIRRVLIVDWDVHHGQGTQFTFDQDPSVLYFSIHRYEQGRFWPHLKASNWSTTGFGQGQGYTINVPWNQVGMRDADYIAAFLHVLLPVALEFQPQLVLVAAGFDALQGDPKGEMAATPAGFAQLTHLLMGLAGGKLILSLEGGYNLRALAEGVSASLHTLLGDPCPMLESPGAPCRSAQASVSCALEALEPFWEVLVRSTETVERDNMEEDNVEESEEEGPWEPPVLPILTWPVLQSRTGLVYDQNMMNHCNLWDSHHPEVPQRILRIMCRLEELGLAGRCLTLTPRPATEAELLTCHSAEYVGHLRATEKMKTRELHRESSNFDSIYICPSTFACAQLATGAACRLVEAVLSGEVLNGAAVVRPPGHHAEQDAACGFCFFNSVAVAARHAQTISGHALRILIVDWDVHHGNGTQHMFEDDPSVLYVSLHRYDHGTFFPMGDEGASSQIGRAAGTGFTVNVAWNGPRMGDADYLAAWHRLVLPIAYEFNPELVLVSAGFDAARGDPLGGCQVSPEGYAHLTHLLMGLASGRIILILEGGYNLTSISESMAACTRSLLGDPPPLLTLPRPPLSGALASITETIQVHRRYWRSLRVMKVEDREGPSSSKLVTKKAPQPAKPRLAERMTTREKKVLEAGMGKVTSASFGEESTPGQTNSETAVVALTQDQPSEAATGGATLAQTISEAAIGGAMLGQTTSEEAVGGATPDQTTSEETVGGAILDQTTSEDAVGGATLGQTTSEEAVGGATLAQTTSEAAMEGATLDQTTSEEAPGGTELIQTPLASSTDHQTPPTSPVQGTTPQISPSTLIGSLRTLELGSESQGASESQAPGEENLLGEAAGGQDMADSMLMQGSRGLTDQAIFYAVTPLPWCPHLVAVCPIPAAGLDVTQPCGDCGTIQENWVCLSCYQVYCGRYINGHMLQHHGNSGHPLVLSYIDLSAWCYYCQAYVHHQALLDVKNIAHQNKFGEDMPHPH

- concentration of maximal degradation effect (hook effect above): around 300 nM
- Dmax (maximum percentage of degradation) (immunoblot band intensity): 70.5%
Compound: O=C(CCCCCCC(=O)N/N=C/c1ccc(OCCOCCOCCn2cc(CNc3cccc4c3C(=O)N(C3CCC(=O)NC3=O)C4=O)nn2)cc1)NO (centres unmarked) [Compound 1]
